Reference: patent publication US10183938B2, “Geminal substituted quinuclidine amide compounds as agonists of α-7 nicotonic acetylcholine receptors” (AXOVANT SCIENCES GMBH, priority 2014, dated 2019)

Sequences of proteins named here, by UniProt entry; tags and fusion partners are left off. Residues count along the entry.
UniProt P36544, 23-502 limits assumed: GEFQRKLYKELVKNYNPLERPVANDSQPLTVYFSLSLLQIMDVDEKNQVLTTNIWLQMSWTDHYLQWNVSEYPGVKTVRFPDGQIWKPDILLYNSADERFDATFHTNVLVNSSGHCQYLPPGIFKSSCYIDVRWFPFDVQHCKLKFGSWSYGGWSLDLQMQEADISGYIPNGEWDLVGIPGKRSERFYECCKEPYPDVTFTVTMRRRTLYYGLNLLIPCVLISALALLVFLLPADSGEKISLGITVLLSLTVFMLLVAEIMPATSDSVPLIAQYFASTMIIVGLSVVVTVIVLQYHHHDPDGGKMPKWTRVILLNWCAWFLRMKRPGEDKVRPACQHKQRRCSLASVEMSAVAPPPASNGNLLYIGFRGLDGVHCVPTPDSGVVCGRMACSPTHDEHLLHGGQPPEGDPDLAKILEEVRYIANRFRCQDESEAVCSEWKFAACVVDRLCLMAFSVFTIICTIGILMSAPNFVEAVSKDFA

target: human α7 nAChR (Homo sapiens (Human), UniProt P36544); test: Human α7 nAChR binding assay ([125I]-αBungarotoxin competition binding); settings: read-out: h-a7 Ki; SH-SY5Y membranes, 0.05 nM [125I]-αBgt, Cheng Prusoff

| Molecule | pKi |
| --- | --- |
| O=C(NC1C2CCN(CC2)C12CC2)c1cc2cccc(Cl)c2s1 (single isomer, unassigned) | 7.43 |
| O=C(N[C@@H]1C2CCN(CC2)C12CC2)c1ccc2ncccc2c1 | < 4.52 |
| CC1(C)[C@H](NC(=O)c2cc3ccc(S(C)(=O)=O)cc3s2)C2CCN1CC2 [(R)-48, (R)—N-(2,2-dimethylquinuclidin-3-yl)-6-(methylsulfonyl)benzo[b]thiophene-2-carboxamide hydrochloride] | < 4.52 |
| CC1(C)[C@@H](NC(=O)c2cc3cc(C4CC4)ccc3s2)C2CCN1CC2 [(S)-19, (S)-5-cyclopropyl-N-(2,2-dimethylquinuclidin-3-yl)benzo[b]thiophene-2-carboxamide hydrochloride] | < 4.52 |
| Cn1cnc2cc(C(=O)N[C@@H]3C4CCN(CC4)C3(C)C)ccc21 [(R)-42, (R)—N-(2,2-dimethylquinuclidin-3-yl)-1-methyl-1H-benzo[d]imidazole-5-carboxamide hydrochloride] | < 4.52 |
| O=C(N[C@@H]1C2CCN(CC2)C12CC2)c1cnn2ncccc12 [(R)-80, (R)—N-(1′-azaspiro[cyclopropane-1,2′-bicyclo[2.2.2]octan]-3′-yl)pyrazolo[1,5-b]pyridazine-3-carboxamide hydrochloride] | < 4.52 |
| O=C(N[C@@H]1C2CCN(CC2)C12CC2)c1cnc2occc2c1 [(R)-89, (R)—N-(1′-azaspiro[cyclopropane-1,2′-bicyclo[2.2.2]octan]-3′-yl)furo[2,3-b]pyridine-5-carboxamide hydrochloride] | < 4.52 |
| O=C(N[C@H]1C2CCN(CC2)C12CC2)c1cc2c(cn1)OCCO2 [(S)-76, (S)—N-(1′-azaspiro[cyclopropane-1,2′-bicyclo[2.2.2]octan]-3′-yl)-2,3-dihydro-[1,4]dioxino[2,3-c]pyridine-7-carboxamide hydrochloride] | < 4.52 |
| CC(C)c1cccc2cc(C(=O)N[C@@H]3C4CCN(CC4)C34CC4)sc12 [(R)-166, (R)-7-isopropyl-N-(1′-azaspiro[cyclopropane-1,2′-bicyclo[2.2.2]octan]-3′-yl)benzo[b]thiophene-2-carboxamide hydrochloride] | 6.21 |
| CC1(C)[C@@H](NC(=O)c2cc3cc(Cl)c(Cl)cc3s2)C2CCN1CC2 [(S)-14, (S)-5,6-dichloro-N-(2,2-dimethylquinuclidin-3-yl)benzo[b]thiophene-2-carboxamide hydrochloride] | < 4.52 |
| CC1(C)[C@@H](NC(=O)c2cc3cc(C(F)(F)F)ccc3s2)C2CCN1CC2 [(S)-17, (S)—N-(2,2-dimethylquinuclidin-3-yl)-5-(trifluoromethyl)benzo[b]thiophene-2-carboxamide hydrochloride] | < 4.52 |
| CC1(C)[C@H](NC(=O)c2cc3ccc(C4CCOCC4)cc3s2)C2CCN1CC2 [(R)-50, (R)—N-(2,2-dimethylquinuclidin-3-yl)-6-(tetrahydro-2H-pyran-4-yl)benzo[b]thiophene-2-carboxamide hydrochloride] | < 4.52 |
| (R)-N-(1′-azaspiro[cyclopropane-1,2′-bicyclo[2.2.2]octan]-3′-yl)benzo[d]isoxazole-5-carboxamide hydrochloride | 4.72 |
| O=C(N[C@@H]1C2CCN(CC2)C12CC2)c1cn2ccnc2cn1 | < 4.52 |
| CC1(C)[C@H](NC(=O)c2cc3ccc(N4CCC(F)(F)CC4)cc3s2)C2CCN1CC2 [(R)-45, (R)-6-(4,4-difluoropiperidin-1-yl)-N-(2,2-dimethylquinuclidin-3-yl)benzo[b]thiophene-2-carboxamide hydrochloride] | < 4.52 |
| CC1(C)[C@H](NC(=O)c2cnc3occc3c2)C2CCN1CC2 [(R)-36, (R)—N-(2,2-dimethylquinuclidin-3-yl)furo[2,3-b]pyridine-5-carboxamide hydrochloride] | < 4.52 |
| O=C(N[C@@H]1C2CCN(CC2)C12CC2)c1cc2ccc(N3CCOCC3)cc2s1 [(R)-99, (R)-6-morpholino-N-(1′-azaspiro[cyclopropane-1,2′-bicyclo[2.2.2]octan]-3′-yl)benzo[b]thiophene-2-carboxamide hydrochloride] | < 4.52 |
| O=C(N[C@H]1C2CCN(CC2)C12CC2)c1cc2cccnc2s1 [(S)-81, (S)—N-(1′-azaspiro[cyclopropane-1,2′-bicyclo[2.2.2]octan]-3′-yl)thieno[2,3-b]pyridine-2-carboxamide hydrochloride] | < 4.52 |
| CC1(C)[C@@H](NC(=O)c2cc3ccc(C4CC4)cc3s2)C2CCN1CC2 [(S)-18, (S)-6-cyclopropyl-N-(2,2-dimethylquinuclidin-3-yl)benzo[b]thiophene-2-carboxamide hydrochloride] | 4.80 |
| CC1(C)[C@@H](NC(=O)c2cc3ccc(C#N)cc3s2)C2CCN1CC2 [(S)-9, (S)-6-cyano-N-(2,2-dimethylquinuclidin-3-yl)benzo[b]thiophene-2-carboxamide hydrochloride] | < 4.52 |
| Cn1cnc2cc(C(=O)N[C@@H]3C4CCN(CC4)C34CC4)ccc21 [(R)-95, (R)-1-methyl-N-(1′-azaspiro[cyclopropane-1,2′-bicyclo[2.2.2]octan]-3′-yl)-1H-benzo[d]imidazole-5-carboxamide hydrochloride] | < 4.52 |
| CN(C)c1ccc2cc(C(=O)N[C@@H]3C4CCN(CC4)C3(C)C)sc2c1 | 5.10 |
| CC1(C)[C@H](NC(=O)c2cn3ccnc3cn2)C2CCN1CC2 | < 4.52 |
| CC1(C)[C@@H](NC(=O)c2cnn3ncccc23)C2CCN1CC2 [(S)-27, (S)—N-(2,2-dimethylquinuclidin-3-yl)pyrazolo[1,5-b]pyridazine-3-carboxamide hydrochloride] | < 4.52 |
| O=C(NC1C2CCN(CC2)C12CC2)c1cc2cc(F)ccc2s1 (single isomer, unassigned) | 6.70 |
| Cn1nc(C(=O)N[C@@H]2C3CCN(CC3)C2(C)C)c2ccccc21 | < 4.52 |
| O=C(N[C@H]1C2CCN(CC2)C12CC2)c1nc2ccccc2s1 [(S)-82, (S)—N-(1′-azaspiro[cyclopropane-1,2′-bicyclo[2.2.2]octan]-3′-yl)benzo[d]thiazole-2-carboxamide hydrochloride] | < 4.52 |
| CC1(C)[C@H](NC(=O)c2cc3cc(C(F)(F)F)ccc3s2)C2CCN1CC2 [(R)-17, (R)—N-(2,2-dimethylquinuclidin-3-yl)-5-(trifluoromethyl)benzo[b]thiophene-2-carboxamide hydrochloride] | < 4.52 |
| CC(C)(C)c1ccc2cc(C(=O)N[C@@H]3C4CCN(CC4)C34CC4)sc2c1 | < 4.52 |
| O=C(NC1C2CCN(CC2)C12CC2)c1ccc2ccsc2c1 (single isomer, unassigned) | 6.96 |

pKi: −log10 of the molar value. Where a name gives a salt, the structure may show the parent alone.
